Like-named read-outs stand apart in the source and are kept apart here.
Legend:
[1] = test system: Capitella FaNaC^52833; assay: Two-electrode voltage clamp of Xenopus oocytes expressing Capitella FaNaC 52833; assay type: cell-based, Capitella teleta
Procedure: (§1) Defolliculated stage V/VI oocytes from X. laevis were commercially acquired (Ecocyte Bioscience) and stored at 18 °C in 50% (in water) Leibovitz’s L-15 medium (Gibco) supplemented with additional 0.25 mg/ml gentamicin, 1 mM L-glutamine, and 15 mM Hepes, pH 7.6. Oocytes were injected with 2 ng cRNA (WT or mutant Aplysia FaNaC) and 2 to 60 ng cRNA (WT C. gigas XM_011442205.2, O. bimaculoides XM_014930938.1, L. gigantea XM_009055314.1_160261, P. fucata pfu_aug2.0_4392.1_09318.t1, C. teleta Capca1_207658, Capca1_52833, Capca1_185559, and Capca1_212912, M. lignano Mlig049925.g2, Mlig051885.g1, and Mlig041003.g1, P. australis g6004.t1 and g5063.t1 and R. norvegicus NP_077068.1 (rat ASIC1a) and respective mutants). Two-electrode voltage clamp experiments were performed 1 to 3 days after injection. The oocyte was placed in an RC-3Z bath (Warner Instruments) and bath solution (NaCl: 96 mM, KCl: 2 mM, CaCl2: 1.8 mM, MgCl2: 1 mM, Hepes: 5 mM; pH: 7.5) was perfused continuously and rapidly switched to bath solution containing peptide ligands via the VCS-8-pinch valve control perfusion system (Warner Instruments). […] Peptides were applied at varying concentrations between 30 nM and 100 μM for concentration-response experiments. […] Current recordings were analyzed in Clampfit 11.1 (Molecular Devices). […]

The chains behind the UniProt entries cited, without tags or fusion partners. Residues count along the entry.
UniProt Q4H3X6, entry or part of it: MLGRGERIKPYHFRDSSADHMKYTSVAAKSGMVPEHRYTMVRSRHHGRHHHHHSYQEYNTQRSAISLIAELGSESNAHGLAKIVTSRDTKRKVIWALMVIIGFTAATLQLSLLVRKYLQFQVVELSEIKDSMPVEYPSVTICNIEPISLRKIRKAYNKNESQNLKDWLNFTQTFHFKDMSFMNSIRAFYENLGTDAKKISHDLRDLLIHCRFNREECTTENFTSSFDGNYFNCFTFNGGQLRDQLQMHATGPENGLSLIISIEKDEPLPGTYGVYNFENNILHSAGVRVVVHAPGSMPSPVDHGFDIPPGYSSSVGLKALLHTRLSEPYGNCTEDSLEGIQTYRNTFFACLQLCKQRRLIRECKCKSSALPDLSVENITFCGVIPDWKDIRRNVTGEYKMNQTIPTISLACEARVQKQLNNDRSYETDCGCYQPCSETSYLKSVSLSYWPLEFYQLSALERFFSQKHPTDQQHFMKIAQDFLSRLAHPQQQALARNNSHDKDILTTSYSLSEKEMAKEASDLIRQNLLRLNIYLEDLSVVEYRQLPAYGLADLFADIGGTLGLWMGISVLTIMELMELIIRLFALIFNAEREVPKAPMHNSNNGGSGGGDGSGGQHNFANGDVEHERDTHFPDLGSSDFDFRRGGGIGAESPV
UniProt A0AAN0NP85, 1-600: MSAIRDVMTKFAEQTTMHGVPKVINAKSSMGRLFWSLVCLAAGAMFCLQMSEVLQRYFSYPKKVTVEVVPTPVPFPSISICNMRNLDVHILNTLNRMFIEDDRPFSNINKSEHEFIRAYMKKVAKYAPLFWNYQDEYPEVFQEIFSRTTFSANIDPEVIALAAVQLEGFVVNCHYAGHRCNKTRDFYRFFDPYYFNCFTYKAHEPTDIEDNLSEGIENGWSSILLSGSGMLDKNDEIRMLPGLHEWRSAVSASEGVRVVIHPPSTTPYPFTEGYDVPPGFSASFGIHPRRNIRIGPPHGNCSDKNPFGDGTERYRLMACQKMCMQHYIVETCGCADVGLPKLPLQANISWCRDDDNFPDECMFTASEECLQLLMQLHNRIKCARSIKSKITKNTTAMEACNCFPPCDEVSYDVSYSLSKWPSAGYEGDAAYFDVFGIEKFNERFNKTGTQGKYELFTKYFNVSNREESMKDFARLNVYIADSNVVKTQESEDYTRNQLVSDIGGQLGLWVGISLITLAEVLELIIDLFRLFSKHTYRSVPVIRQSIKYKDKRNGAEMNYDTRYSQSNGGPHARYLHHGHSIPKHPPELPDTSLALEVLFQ

[2] = test system: Helisoma trivolvis FaNaC; settings: cited from earlier work
[3] = test system: MGIC Platynereis dumerilii; design: method as in PMID 29688813; settings: four Platynereis sequences heterologously expressed; cited from earlier work
[4] = test system: Helix aspersa FaNaC; design: method as in PMID 15843991, PMID 26867576; settings: read-out: FMRFa EC50; cited from earlier work
[5] = test system: three platyhelminth (Macrostomum lignano) and two phoronid (Phoronis australis) genes; assay: Peptide responses of oocytes injected with platyhelminth and phoronid DEG/ENaC RNAs; assay type: cell-based; settings: RNAs injected alone or in combination; n = 4–6
Description: We also tested three platyhelminth (Macrostomum lignano) and two phoronid (Phoronis australis) genes that appear in a small branch closely related to the FaNaC branch (lower clade in Fig. 1A). We injected oocytes with these RNAs either alone or in combination, in case of obligate heteromerization, but with these oocytes, we observed no response to FMRFa or YMRFa (from Macrostomum propeptide Mlig001796.g3), FVRIa (from Phoronis propeptide DN252244_c0_g1_i1), or […]a or AYGSMPWa (both from Macrostomum propeptide Mlig032062.g1; n = 4–6). […] Whether this reflects the emergence of FaNaCs after the lineage to Annelida + Brachiopoda + Molluska split from the lineage to Platyhelminthes (and were lost in Phoronida) or whether FaNaCs emerged earlier and FMRFa sensitivity was lost in these platyhelminth and phoronid channels would require experiments on more channels.

[6] = test system: Aplysia kurodai FaNaC; assay: cell-based; assay type: cell-based
Procedure: (§2) This generated 30 Aplysia FaNaC mutants (e.g., A319Q in Fig. 3A).
(§3) Defolliculated stage V/VI oocytes from X. laevis were commercially acquired (Ecocyte Bioscience) and stored at 18 °C in 50% (in water) Leibovitz’s L-15 medium (Gibco) supplemented with additional 0.25 mg/ml gentamicin, 1 mM L-glutamine, and 15 mM Hepes, pH 7.6. Oocytes were injected with 2 ng cRNA (WT or mutant Aplysia FaNaC) and 2 to 60 ng cRNA (WT C. gigas XM_011442205.2, O. bimaculoides XM_014930938.1, L. gigantea XM_009055314.1_160261, P. fucata pfu_aug2.0_4392.1_09318.t1, C. teleta Capca1_207658, Capca1_52833, Capca1_185559, and Capca1_212912, M. lignano Mlig049925.g2, Mlig051885.g1, and Mlig041003.g1, P. australis g6004.t1 and g5063.t1 and R. norvegicus NP_077068.1 (rat ASIC1a) and respective mutants). Two-electrode voltage clamp experiments were performed 1 to 3 days after injection. The oocyte was placed in an RC-3Z bath (Warner Instruments) and bath solution (NaCl: 96 mM, KCl: 2 mM, CaCl2: 1.8 mM, MgCl2: 1 mM, Hepes: 5 mM; pH: 7.5) was perfused continuously and rapidly switched to bath solution containing peptide ligands via the VCS-8-pinch valve control perfusion system (Warner Instruments). […] Peptides were applied at varying concentrations between 30 nM and 100 μM for concentration-response experiments. The oocytes were clamped at −40 mV for rat ASIC1a experiments and −60 mV for all others with an Oocyte Clamp OC-725C amplifier (Warner Instruments), LIH 8 + 8 digitizer (HEKA Elektronik) at 0.5 or 1 KHz sampling and 100 Hz filtering. Current recordings were analyzed in Clampfit 11.1 (Molecular Devices).
(§4) After retrieving current amplitude from pClamp, all data analyses were performed in Prism v9 (GraphPad Software). For peptide or proton concentration-response data, peak current amplitude was plotted against peptide concentrations or pH and fitted with the Hill equation for each recording. These were averaged to give the reported means ± SEM in the main text. For display in figures, a single fit to the average normalized responses (±SEM) is shown. Multiple comparisons were made with one-way ANOVA with Dunnett’s comparison to a control value (e.g., comparing with WT) or with Tukey’s test for multiple comparisons.

[7] = target: Aplysia kurodai FaNaC (Aplysia kurodai, UniProt Q4H3X6); assay: cell-based; assay type: cell-based
Procedure: as §2, §3, §4

[8] = test system: Malacoceros FaNaC^ON156826; assay: Two-electrode voltage clamp of Xenopus oocytes expressing Malacoceros FaNaC ON156826; assay type: cell-based, Malacoceros fuliginosus; settings: WT channel, n = 8, mean ± SEM, read-out: EC50 of FMRFa
Procedure: as §1

[9] = target: Malacoceros FaNaC^ON156825 (Malacoceros fuliginosus, UniProt A0AAN0NP85); assay: cell-based
Procedure: as §1

For `CSCC[C@H](NC(=O)[C@@H](N)Cc1ccccc1)C(=O)N[C@@H](CCCNC(=N)N)C(=O)N[C@@H](Cc1ccccc1)C(N)=O` [FMRFa, Phe-Met-Arg-Phe-amide], which FMRFa-gated currents ([1]; R278Q and G306T mutations) is on record?
Its FMRFa-gated currents is “abolished”.

And the EC50 ([1]; WT channel, Xenopus oocytes, n = 7, mean ± SEM, read-out: EC50 of FMRFa)?
Its EC50 is 0.35 ± 0.15 µM.

And the EC50 ([2]; Helisoma FaNaC with 32 aa segment from Helix FaNaC, read-out: FMRFa sensitivity)?
The EC50 was 3 µM.

What about the EC50 ([2]; read-out: FMRFa EC50) of the same compound?
The EC50 was 100 µM.

What about the “response to FMRFa” value [3] of the same compound?
Its value is “did not respond”.

And the EC50 [4]?
The EC50 was 3 µM.

What about the “current response to peptide” value [5] of the same compound?
The value was “no response”.

And the “current activated by FMRFa” value ([6]; I281T, G316T, R324N, S447V and R529Q mutants, 100 μM FMRFa)?
The value was “negligible, if any, current”.

What about the “activation by FMRFa” value ([6]; seven mutants (S184A, R324N, G270D/Y272L, I281T/S284D, S314F/G316T, S447V/W449F, R529Q/L530V/N531S), 3 or 30 μM FMRFa) of the same compound?
Its value is “not significantly activated”.

And the “current activated by FMRFa” value ([7]; F231G mutant, 100 μM FMRFa)?
Its value is “small currents”.

What about the EC50 ([7]; FMRFa EC50, S184A mutant) of the same compound?
The EC50 was about 30 µM.

What about the EC50 ([7]; FMRFa EC50, WT, n = 5) of the same compound?
Its EC50 is 3.4 ± 0.4 µM.

And the “effect of mutation on FMRFa potency” value ([7]; R288Q mutant)?
The value was “abolished FMRFa potency”.

And the “I3 μM/I30 μM ratio of FMRFa potency” value ([7]; WT, 3 μM FMRFa-gated current amplitude/30 μM FMRFa-gated current amplitude, n = 14)?
The value was 0.64 ± 0.04.

And the EC50 [8]?
The EC50 was 11 ± 3 µM.

And the EC50 [9]?
The EC50 was 0.23 ± 0.06 µM.
